This passage reports inhibition results from PubChem BioAssay AID492972 (The Scripps Research Institute Molecular Screening Center, 2010).

Amino acid sequences for entries named in this document (tags omitted).
UniProt Q15102, whole entry: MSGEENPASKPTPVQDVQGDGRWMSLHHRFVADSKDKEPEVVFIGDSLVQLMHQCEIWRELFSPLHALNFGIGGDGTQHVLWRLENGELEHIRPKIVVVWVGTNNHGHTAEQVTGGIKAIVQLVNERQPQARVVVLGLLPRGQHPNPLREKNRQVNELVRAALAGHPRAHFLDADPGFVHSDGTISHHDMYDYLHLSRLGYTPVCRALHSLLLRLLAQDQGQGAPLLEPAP

This is a selection; strong and weak results do not stand in their true shares. Some structures show a salt or complex split into parts, the way the source records it. Calls of active or inactive are those of the source.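 Rule for the calls: active = inhibition above the screen-wide average of all tested compounds plus 3 SD (cut at about 25% in these data); inactive = the rest.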

This test has as its target Platelet-activating factor acetylhydrolase IB subunit alpha1 (Homo sapiens) (UniProt Q15102). Description: inhibition of PAF acetylhydrolase 1B subunit 3 – biochemical, fluorescence polarization, human, primary screen (AID 492972).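 Note: 0% = enzyme with DMSO only and 100% = wells lacking PAFAH1B3 protein.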 The conditions noted are these: recombinant PAFAH1B3, FP-rhodamine probe, at 3.39 µM, active compounds read high. A general note: Polarisation of emitted light reports the rotation of a fluorescent probe.
As to `CCCCCOc1ccc(NP(C)(=O)Oc2ccc(Cl)cc2Cl)cc1` (stereo not given), the inhibition – broadly, the relative decrease from the control value, in per cent – was inactive: -0.75%. In the case of `CCOC(=O)c1ccc(NP(C)(=O)Oc2ccc(F)cc2)cc1` (stereo not given) it was inactive: 2.98%; in that of `COc1ccc(OP(C)(=O)Nc2ccc(SC(F)(F)F)cc2)cc1` (stereo not given), inactive: 6.52%. Regarding `O=C(OC1CN2CCC1CC2)c1ccc([N+](=O)[O-])cc1` (stereo not given), the inhibition is inactive: 3.42%. In the case of `O=C(OCCN1CCN(CCOCc2ccccc2)CC1)C(O)(c1ccccc1)c1ccccc1` it was inactive: 6.29%; in that of `COc1ccc2c(c1O)-c1c(O)c(OC)cc3c1[C@H](C2)[N+](C)(C)CC3.O=[N+]([O-])c1cc([N+](=O)[O-])c([O-])c([N+](=O)[O-])c1[O-]`, inactive: 11.5%.

As to `CP(=O)(Nc1ccccc1F)Oc1ccccc1` (stereo not given), the inhibition is inactive: -1.78%. For `CC(C)c1ccc(OP(C)(=O)Nc2ccc(SC(F)(F)F)cc2)cc1` (stereo not given) the value was inactive: -0.6%; for `Cc1c(NP(C)(=O)Oc2ccc(C(C)C)cc2)c(=O)n(-c2ccccc2)n1C` (stereo not given), inactive: 11.1%. For `O=[N+]([O-])c1cc([N+](=O)[O-])c(Nc2ccccn2)c([N+](=O)[O-])c1`, the inhibition was inactive: 15.2%. Regarding `CP(=O)(Nc1ccccn1)Oc1ccccc1` (stereo not given), the inhibition was inactive: -1.38%.

Consider `COc1ccccc1OP(C)(=O)Nc1ccc(C)cc1C` (stereo not given), for which the inhibition was inactive: 7.33%. For `CCc1ccc(OP(C)(=O)O)cc1` the value was inactive: 7.36%; for `COc1ccccc1OP(C)(=O)Nc1ccc(Br)cc1` (stereo not given), inactive: -1.78%. Turning to `COc1ccc(OP(C)(=O)Nc2ccccn2)cc1` (stereo not given), the inhibition was inactive: 4.66%. As for `CN(C)CCOC(=O)C(O)(c1ccccc1)C1CCCC1` (stereo not given), the inhibition is inactive: 9.74%.

`CP(=O)(Nc1ccc(Cl)cc1Cl)Oc1ccccc1` (stereo not given): the inhibition is inactive: 7.15%. With `CCCCCCCCCCCCCCCC1C[N+](C)(C)CCOP(C)(=O)O1` (stereo not given), the inhibition was inactive: -2.03%. `CP(=O)(OCCOc1ccccc1)OCCOc1ccccc1`: the inhibition is inactive: -2.73%. Take `O=C1C(O)=C([N+](=O)[O-])C(=O)C(O)=C1[N+](=O)[O-]`: the inhibition was inactive: 8.77%. For `Cc1cc(C)cc(OP(C)(=O)Nc2cccc(C(F)(F)F)c2)c1` (stereo not given) the value was inactive: 2.24%; for `COc1ccccc1OP(C)(=O)Nc1ccc(C)c(C)c1` (stereo not given), inactive: 6.31%; for `COc1ccc(OP(C)(=O)Nc2ccccc2Br)cc1` (stereo not given), inactive: 6.59%. In the case of `CCOC(=O)c1ccc(NP(C)(=O)Oc2ccc(Cl)cc2)cc1` (stereo not given), the inhibition was inactive: 4.97%.

As for `CP(=O)(OC12CC3CC(CC(C3)C1)C2)OC12CC3CC(CC(C3)C1)C2`, the inhibition is inactive: 3.47%. In the case of `COc1ccccc1OP(C)(=O)Nc1ccccc1Br` (stereo not given) it was inactive: 4.69%; in that of `CC(C)(C)c1ccc(OP(C)(=O)O)cc1`, inactive: -0.12%. Turning to `CP(=O)(Nc1ccc(Cl)cc1)Oc1ccc(F)cc1` (stereo not given), the inhibition was inactive: 8.36%. For `CN(C)C(=O)c1c([N+](=O)[O-])cc([N+](=O)[O-])cc1[N+](=O)[O-]` the value was inactive: 17.7%; for `CCN(CC)CC(O)COC(=O)C(O)(c1ccccc1)C1CCCCC1` (stereo not given), inactive: 0.5%; for `COc1ccc(OP(C)(=O)Nc2ccc(Br)cc2)cc1` (stereo not given), inactive: 3.54%. `COc1ccccc1OP(C)(=O)Nc1c(C)n(C)n(-c2ccccc2)c1=O` (stereo not given): the inhibition was inactive: 1.2%. For `O=C(OCCCN1CCCC1)C(O)(c1ccccc1)C1CCCCC1` (stereo not given) the value was inactive: 6.36%; for `CP(=O)(Oc1ccccc1)N1CCOC1=O` (stereo not given), inactive: -1.92%; for `CCc1ccc(OP(C)(=O)Nc2cccnc2)cc1` (stereo not given), inactive: 3.52%.
